IC50 data for 2 compounds are collected here from US7687510B2, “Pyrimidinone derivatives as therapeutic agents against acute and chronic inflammatory, ischaemic and remodelling processes” (Bayer Healthcare AG, priority 2002, dated 2010).

The target of this assay is T1, human neutrophil elastase (HNE) (Homo sapiens, UniProt P08246).
T1 construct: purchased SERVA Electrophoresis GmbH, Heidelberg, Germany #20927.01
T1 sequence (P08246 30-267): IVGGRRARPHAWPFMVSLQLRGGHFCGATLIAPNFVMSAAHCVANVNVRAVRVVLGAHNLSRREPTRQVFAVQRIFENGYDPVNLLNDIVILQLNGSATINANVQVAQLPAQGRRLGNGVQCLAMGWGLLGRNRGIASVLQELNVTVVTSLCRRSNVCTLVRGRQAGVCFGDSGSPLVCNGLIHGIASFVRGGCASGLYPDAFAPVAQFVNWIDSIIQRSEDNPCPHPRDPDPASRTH
Description: In vitro inhibition of HNE using a fluorogenic peptide substrate (continuous read-out signal, 384 MTP assay format). In kind it is biochemical. To be noted: substrate MeOSuc-Ala-Ala-Pro-Val-AMC, 37° C. Here is the method:
I. In vitro Enzyme Assays of Human Neutrophil Elastase (HNE)
assay buffer: 0.1 M HEPES-NaOH buffer pH 7.4, 0.5 M NaCl, 0.1% (w/v) bovine serum albumin;
suitable concentration (see below) of substrate in assay buffer;
suitable concentration of test compounds diluted with assay buffer from a 10 mM stock solution in DMSO.
The test solution is prepared by mixing 10 μl of test compound dilution, 20 μl of HNE enzyme dilution (final concentration 8-0.4 μU/ml, routinely 2.1 μU/ml) and 20 μl of substrate dilution (final concentration 1 mM-1 μM, routinely 20 μM), respectively. The solution is incubated for 0-2 hrs at 37° C. (routinely one hour). The florescence of the liberated AMC due to the enzymatic reaction is measured at 37° C. (TECAN spectra fluor plus plate reader). […] IC50 values are determined by RFU-versus-[I] plots. Km and Km(app.) values are determined by Lineweaver-Burk inverted to Ki values by Dixon plots.

SMILES strings stand for the structures.

For `CC(=O)C1=C(C)N(c2cccc(C(F)(F)F)c2)C(=O)NC1c1ccc(C#N)nc1` (single isomer, unassigned; (+)) [Example 74, (+)-5-{5-Acetyl-6-methyl-2-oxo-1-[3-(trifluoromethyl)phenyl]-1,2,3,4-tetrahydro-4-pyrimidinyl}-2-pyridinecarbonitrile], the IC50 (commonly the concentration at which inhibition is half-maximal) worked out at 20 nM.

In the case of `CC(=O)C1=C(C)N(c2cccc(C(F)(F)F)c2)C(=O)NC1c1ccc(C#N)nc1` (centres unmarked) [Example 73, 5-{5-Acetyl-6-methyl-2-oxo-1-[3-(trifluoromethyl)phenyl]-1,2,3,4-tetrahydro-4-pyrimidinyl}-2-pyridinecarbonitrile], the IC50 was 60 nM.
